Measurements from ChEMBL document CHEMBL3414528, “Novel naftopidil-related derivatives and their biological effects as alpha1-adrenoceptors antagonists and antiproliferative agents” (Eur J Med Chem, 2015).

Target: T1, Alpha-1A adrenergic receptor (Rattus norvegicus, UniProt P43140)
T1 sequence (P43140 whole entry): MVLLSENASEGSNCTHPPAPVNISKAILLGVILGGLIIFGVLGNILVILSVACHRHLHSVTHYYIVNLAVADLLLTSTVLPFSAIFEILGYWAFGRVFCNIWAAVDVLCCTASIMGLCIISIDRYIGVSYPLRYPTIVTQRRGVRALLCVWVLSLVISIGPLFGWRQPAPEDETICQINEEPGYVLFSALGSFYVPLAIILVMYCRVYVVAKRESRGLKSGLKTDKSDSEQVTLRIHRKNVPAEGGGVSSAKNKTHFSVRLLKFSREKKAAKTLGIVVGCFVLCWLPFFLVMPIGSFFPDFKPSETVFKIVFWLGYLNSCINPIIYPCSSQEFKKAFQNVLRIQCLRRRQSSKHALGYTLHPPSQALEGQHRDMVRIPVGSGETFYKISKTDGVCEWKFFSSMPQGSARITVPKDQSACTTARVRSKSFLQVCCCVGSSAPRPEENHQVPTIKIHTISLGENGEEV
Experiment: Antagonist activity at Sprague-Dawley rat prostatic vas deferens adrenergic alpha-1A receptor after 20 mins
Conditions: read-out: pA2 (converted)
Procedure, shortened: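 Isolated rat tissues (prostatic vas deferens, spleen, thoracic aorta) contracted with cumulative norepinephrine; concentration-response curves recorded in presence of increasing antagonist concentrations, antagonism read as rightward curve shift. Mean ± SEM of five to eight separate experiments.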

COc1cc2nc(N3CCN(C(=O)C4CCCO4)CC3)nc(N)c2cc1OC (stereo unspecified) [TERAZOSIN]
Kb: 12.6 nM
